system: FL5.12 cells transfected with Bcl-XL; test: FL5.12 Cellular Assay (cell viability, CellTiter-Glo); format: cell-based; details: mouse FL5.12 cells transfected with Bcl-XL, IL-3-depleted, 3% FBS assay media, 24 hours; read-out: FL5.12 Bcl-xL, IL3, EC 50

Compound | EC50 [nM]
Cc1c(-c2ccc(N3CCc4cccc(C(=O)Nc5nc6ccccc6s5)c4C3)nc2C(=O)O)cnn1C[C@@H]1C[C@@H]2C=C[C@H]1C2 [Example 91, 6-[8-(1,3-benzothiazol-2-ylcarbamoyl)-3,4-dihydroisoquinolin-2(1H)-yl]-3-{1-[(1R,2R,4R)-bicyclo[2.2.1]hept-5-en-2-ylmethyl]-5-methyl-1H-pyrazol-4-yl}pyridine-2-carboxylic acid] | 30

system: not listed separately; test: Single Dose Pharmacokinetics, oral bioavailability; format: in vivo, Sprague-Dawley rats; details: Rat p.o. dose, 5 mpk

Compound | F (%), dose
O=C(Nc1nc2ccccc2s1)c1cccc2c1CN(c1ccc(-c3cnn(CC4(C(F)(F)F)CCCCC4)c3)c(C(=O)O)n1)CC2 [Example 74, 6-[8-(1,3-benzothiazol-2-ylcarbamoyl)-3,4-dihydroisoquinolin-2(1H)-yl]-3-(1-{[1-(trifluoromethyl)cyclohexyl]methyl}-1H-pyrazol-4-yl)pyridine-2-carboxylic acid] | 23, 5 mpk %
Cc1c(-c2ccc(N3CCc4cccc(C(=O)Nc5nc6ccccc6s5)c4C3)nc2C(=O)O)cc(C#N)n1CC1(N2CCCCC2)CCCCC1 [Example 131, 6-[8-(1,3-benzothiazol-2-ylcarbamoyl)-3,4-dihydroisoquinolin-2(1H)-yl]-3-(5-cyano-2-methyl-1-{[1-(piperidin-1-yl)cyclohexyl]methyl}-1H-pyrrol-3-yl)pyridine-2-carboxylic acid] | 11, 5 mpk %
O=C(Nc1nc2ccccc2s1)c1cccc2c1CN(c1ccc(-c3cnn(C4CCc5ccccc54)c3)c(C(=O)O)n1)CC2 (centres unmarked) [Example 37, 6-[8-(1,3-benzothiazol-2-ylcarbamoyl)-3,4-dihydroisoquinolin-2(1H)-yl]-3-[1-(2,3-dihydro-1H-inden-1-yl)-1H-pyrazol-4-yl]pyridine-2-carboxylic acid] | 29, 5 mpk %
O=C(Nc1nc2ccccc2s1)c1cccc2c1CN(c1ccc(-c3cnn(Cc4cccc(N5CCCC5)n4)c3)c(C(=O)O)n1)CC2 [Example 22, 6-[8-(1,3-benzothiazol-2-ylcarbamoyl)-3,4-dihydroisoquinolin-2(1H)-yl]-3-(1-{[6-(pyrrolidin-1-yl)pyridin-2-yl]methyl}-1H-pyrazol-4-yl)pyridine-2-carboxylic acid] | 27, 5 mpk %
Cc1c(-c2ccc(N3CCc4cccc(C(=O)Nc5nc6ccccc6s5)c4C3)nc2C(=O)O)cnn1C[C@@H]1C[C@@H]2C=C[C@H]1C2 [Example 91, 6-[8-(1,3-benzothiazol-2-ylcarbamoyl)-3,4-dihydroisoquinolin-2(1H)-yl]-3-{1-[(1R,2R,4R)-bicyclo[2.2.1]hept-5-en-2-ylmethyl]-5-methyl-1H-pyrazol-4-yl}pyridine-2-carboxylic acid] | 16, 5 mpk %
COCCC(c1ccccc1)n1cc(-c2ccc(N3CCc4cccc(C(=O)Nc5nc6ccccc6s5)c4C3)nc2C(=O)O)cn1 (centres unmarked) [Example 93, 6-[8-(1,3-benzothiazol-2-ylcarbamoyl)-3,4-dihydroisoquinolin-2(1H)-yl]-3-[1-(3-methoxy-1-phenylpropyl)-1H-pyrazol-4-yl]pyridine-2-carboxylic acid] | 33, 5 mpk %
COCCCC1(Cn2ncc(-c3ccc(N4CCc5cccc(C(=O)Nc6nc7ccccc7s6)c5C4)nc3C(=O)O)c2C)CCCCCC1 [Example 147, 6-[8-(1,3-benzothiazol-2-ylcarbamoyl)-3,4-dihydroisoquinolin-2(1H)-yl]-3-(1-{[1-(3-methoxypropyl)cycloheptyl]methyl}-5-methyl-1H-pyrazol-4-yl)pyridine-2-carboxylic acid] | 37, 5 mpk %
COCCC1(Cn2ncc(-c3ccc(N4CCc5cccc(C(=O)Nc6nc7ccccc7s6)c5C4)nc3C(=O)O)c2C)CCCCC1 [Example 90, 6-[8-(1,3-benzothiazol-2-ylcarbamoyl)-3,4-dihydroisoquinolin-2(1H)-yl]-3-(1-{[1-(2-methoxyethyl)cyclohexyl]methyl}-5-methyl-1H-pyrazol-4-yl)pyridine-2-carboxylic acid] | 44, 5 mpk %
O=C(Nc1nc2ccccc2s1)c1cccc2c1CN(c1ccc(-c3cccc(OC4CCCCC4)c3F)c(C(=O)O)n1)CC2 [Example 119, 6-[8-(1,3-benzothiazol-2-ylcarbamoyl)-3,4-dihydroisoquinolin-2(1H)-yl]-3-[3-(cyclohexyloxy)-2-fluorophenyl]pyridine-2-carboxylic acid] | 54, 5 mpk %
O=C(Nc1nc2ccccc2s1)c1cccc2c1CN(c1ccc(-c3cnn(Cc4ccccc4Cl)c3)c(C(=O)O)n1)CC2 [Example 25, 6-[8-(1,3-benzothiazol-2-ylcarbamoyl)-3,4-dihydroisoquinolin-2(1H)-yl]-3-[1-(2-chlorobenzyl)-1H-pyrazol-4-yl]pyridine-2-carboxylic acid] | 24, 5 mpk %

From US9266877B2, “Apoptosis-inducing agents for the treatment of cancer and immune and autoimmune diseases” (priority 2011, dated 2016)
